Here are results for two compounds from PubChem BioAssay AID2275 (Broad Institute, 2010).

This is a selection; strong and weak results do not stand in their true shares. Calls of active or inactive are those of the source. Rule as the data show it: active = viability loss activity score above about 50%; inconclusive = no clear call, values can overlap the other calls; inactive = below about 35%.

The test in a line: cytotoxicity in HRASV12-transformed BJ fibroblasts – cell-based, luminescence, CellTiterGlo ATP, primary screen (AID 2275).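 Also: higher score means fewer live cells and less ATP luminescence.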 The conditions noted are these: BJeLR fibroblasts viability, 48 h, hits give high values, HRASV12, hTERT and SV40 LT/ST transformed, concentration not given here. A general note: ATP-based viability assays read luminescence as a measure of living cells.
For `CC(C)(C)OC(=O)N1CCC(Nc2ccc(OC(F)(F)F)cc2)CC1`, the viability loss activity score was inactive: 1.37%. In the case of `FC(F)(F)Oc1ccc(NC2CCNCC2)cc1`, the viability loss activity score is inactive: -1.53%.
